Patent EP4821927A1, “BENZO HETEROCYCLIC COMPOUND AND USE THEREOF” (dated 2026)

Amino acid sequences for entries named in this document (tags omitted).
UniProt O14842, whole entry: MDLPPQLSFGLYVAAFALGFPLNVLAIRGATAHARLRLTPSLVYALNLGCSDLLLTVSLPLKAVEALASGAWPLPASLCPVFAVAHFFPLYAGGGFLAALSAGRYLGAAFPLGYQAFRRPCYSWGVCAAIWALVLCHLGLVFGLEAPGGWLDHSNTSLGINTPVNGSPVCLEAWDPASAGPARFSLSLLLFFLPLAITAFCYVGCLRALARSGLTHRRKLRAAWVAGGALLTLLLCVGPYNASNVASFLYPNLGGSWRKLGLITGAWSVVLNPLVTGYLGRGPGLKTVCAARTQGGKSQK

molecular target: human FFAR1(GPR40) (Homo sapiens, UniProt O14842); experiment: NFAT-RE reporter gene activity assay (Dual-Glo luciferase) for in vitro agonist activity on GPR40 in co-transfected HEK293T cells; conditions: read-out: Nuclear factor of activated T-cells reporter gene activity assay (NFAT reporter assay) EC50; HEK293T cells co-transfected with GPR40, NFAT-RE and pRL-TK plasmids; 4-hour treatment; highest concentration 1 µM

Compared with `COc1cccc(N2CCC(c3oc4cc([C@@H](CC(=O)O)C5CC5)ccc4c3C(=O)OC(C)(C)c3ccccc3)CC2)c1`, `COc1cccc(N2CCC(c3oc4cc([C@@H](CC(=O)O)C5CC5)ccc4c3C(=O)OC3(C(C)(C)c4ccccc4)CC3)CC2)c1` is lower in EC50: greater than 100 nM for the first, 1 to 10 nM for the second.

`COc1cccc(N2CCC(c3oc4cc([C@@H](CC(=O)O)C5CC5)ccc4c3C(=O)Oc3cc(CCc4ccccc4)ccc3F)CC2)c1` and `COc1cccc(N2CCC(c3oc4cc([C@@H](CC(=O)O)C5CC5)ccc4c3C(=O)Oc3cc(Cc4ccccc4)ccc3F)CC2)c1` fall in the same range of EC50: 1 to 10 nM for the first, 1 to 10 nM for the second.

`CCCCOC(=O)c1c(C2CCN(c3cccc(OC)c3)CC2)oc2cc([C@@H](CC(=O)O)C3CC3)ccc12` and `CCCCCOC(=O)c1c(C2CCN(c3cccc(OC)c3)CC2)oc2cc([C@@H](CC(=O)O)C3CC3)ccc12` fall in the same range of EC50: 1 to 10 nM for the first, 1 to 10 nM for the second.

`COc1cccc(N2CCC(c3oc4cc([C@@H](CC(=O)O)C5CC5)ccc4c3C(=O)OC3(Cc4ccccc4)CC3)CC2)c1` and `COc1cccc(N2CCC(c3oc4cc([C@@H](CC(=O)O)C5CC5)ccc4c3C(=O)OC3(c4ccccc4)CC3)CC2)c1` fall in the same range of EC50: 1 to 10 nM for the first, 1 to 10 nM for the second.

First: C=C(C)COC(=O)c1c(C2CCN(c3cccc(OC)c3)CC2)oc2cc([C@@H](CC(=O)O)C3CC3)ccc12
Second: CCOC(=O)c1c(C2CCN(c3cccc(OC)c3)CC2)oc2cc([C@@H](CC(=O)O)C3CC3)ccc12
The EC50 of the first is higher: greater than 100 nM for the first, 10 to 100 nM for the second.

`COc1cccc(N2CCC(c3oc4cc([C@@H](CC(=O)O)C5CC5)ccc4c3C(=O)OCC(C)(C)C)CC2)c1` and `COc1cccc(N2CCC(c3oc4cc([C@@H](CC(=O)O)C5CC5)ccc4c3C(=O)OC(C)(C)C)CC2)c1` cannot be ordered by EC50: less than 1 nM for the first, less than 1 nM for the second.

`CC(C)(C)OC(=O)c1c(C2CCN(c3ccccc3Cl)CC2)oc2cc([C@@H](CC(=O)O)C3CC3)ccc12` and `CC(C)(C)OC(=O)c1c(C2CCN(c3ccccc3F)CC2)oc2cc([C@@H](CC(=O)O)C3CC3)ccc12` fall in the same range of EC50: 1 to 10 nM for the first, 1 to 10 nM for the second.

Compared with `COc1cccc(N2CCC(c3oc4cc([C@@H](CC(=O)O)C5CC5)ccc4c3C(=O)Oc3ccc(F)cc3)CC2)c1`, `COc1cccc(N2CCC(c3oc4cc([C@@H](CC(=O)O)C5CC5)ccc4c3C(=O)Oc3ccccc3F)CC2)c1` is lower in EC50: 10 to 100 nM for the first, 1 to 10 nM for the second. The second is the more potent here.

First: COc1cccc(C2=CCC(c3oc4cc([C@@H](CC(=O)O)C5CC5)ccc4c3C(=O)OCc3ccccc3)CC2)c1 (stereo partly shown)
Second: COc1cccc(N2CCC(c3oc4cc([C@@H](CC(=O)O)C5CC5)ccc4c3C(=O)OCc3ccccc3)CC2)c1
The EC50 of the first is higher: greater than 100 nM for the first, 1 to 10 nM for the second. The second is the more potent here.

First: CC(C)(C)OC(=O)c1c(C2CCN(c3cccc(C(F)(F)F)c3)CC2)oc2cc([C@@H](CC(=O)O)C3CC3)ccc12
Second: CC(C)(C)OC(=O)c1c(C2CCN(c3cccc(OC(F)(F)F)c3)CC2)oc2cc([C@@H](CC(=O)O)C3CC3)ccc12
The EC50 of the first is lower: 10 to 100 nM for the first, greater than 100 nM for the second.

Compared with `COc1cccc(N2CCC(c3oc4cc([C@@H](CC(=O)O)C5CC5)ccc4c3C(=O)OC(C)(C)C)CC2)c1F`, `COc1ccc(F)c(N2CCC(c3oc4cc([C@@H](CC(=O)O)C5CC5)ccc4c3C(=O)OC(C)(C)C)CC2)c1` is higher in EC50: less than 1 nM for the first, 1 to 10 nM for the second. The first is the more potent here.

Compared with `CCCCCCCCOC(=O)c1c(C2CCN(c3cccc(OC)c3)CC2)oc2cc([C@@H](CC(=O)O)C3CC3)ccc12`, `CCCCCCOC(=O)c1c(C2CCN(c3cccc(OC)c3)CC2)oc2cc([C@@H](CC(=O)O)C3CC3)ccc12` is lower in EC50: 10 to 100 nM for the first, 1 to 10 nM for the second.

`COc1cccc(N2CCC(c3oc4cc([C@H](C5CC5)C(C)C(=O)O)ccc4c3C(=O)OC(C)(C)C)CC2)c1` (stereo partly shown) and `COc1cccc(N2CCC(c3oc4cc([C@H](C5CC5)C(F)C(=O)O)ccc4c3C(=O)OC(C)(C)C)CC2)c1` (stereo partly shown) cannot be ordered by EC50: less than 1 nM for the first, less than 1 nM for the second.

`COc1cccc(C2=CCC(c3oc4cc([C@@H](CC(=O)O)C5CC5)ccc4c3C(=O)OCC(C)C)CC2)c1` (stereo partly shown) and `COc1cccc(N2CCC(c3oc4cc([C@@H](CC(=O)O)C5CC5)ccc4c3C(=O)OCC(C)C)CC2)c1` fall in the same range of EC50: 1 to 10 nM for the first, 1 to 10 nM for the second.

`COC(=O)c1c(C2CCN(c3cccc(OC)c3)CC2)oc2cc([C@@H](CC(=O)O)C3CC3)ccc12` and `COc1cccc(N2CCC(c3oc4cc([C@@H](CC(=O)O)C5CC5)ccc4c3C(=O)OC(C)C)CC2)c1` fall in the same range of EC50: 10 to 100 nM for the first, 10 to 100 nM for the second.

Compared with `COc1cccc(N2CCC(c3oc4cc([C@@H](CC(=O)O)C5CC5)ccc4c3C(=O)O[C@@H](C)c3ccccc3)CC2)c1`, `COc1cccc(N2CCC(c3oc4cc([C@@H](CC(=O)O)C5CC5)ccc4c3C(=O)O[C@H](C)c3ccccc3)CC2)c1` is lower in EC50: 10 to 100 nM for the first, 1 to 10 nM for the second. The second is the more potent here.

Compared with `COc1cccc(N2CCC(c3oc4cc([C@@H](CC(=O)O)C5CC5)ccc4c3C(=O)O)CC2)c1`, `CCCOC(=O)c1c(C2CCN(c3cccc(OC)c3)CC2)oc2cc([C@@H](CC(=O)O)C3CC3)ccc12` is lower in EC50: greater than 1000 nM for the first, 1 to 10 nM for the second. The second is the more potent here.

`COc1cccc(N2CCC(c3oc4cc([C@@H](CC(=O)O)C5CC5)ccc4c3C(=O)OC(C(F)(F)F)(C(F)(F)F)C(F)(F)F)CC2)c1` and `COc1cccc(N2CCC(c3oc4cc([C@@H](CC(=O)O)C5CC5)ccc4c3C(=O)OC(C)(C(F)(F)F)C(F)(F)F)CC2)c1` cannot be ordered by EC50: less than 1 nM for the first, less than 1 nM for the second.

`COc1cccc(N2CCC(c3oc4cc([C@@H](CC(=O)O)C5CC5)ccc4c3C(=O)Oc3ccccc3Cl)CC2)c1` and `COc1cccc(N2CCC(c3oc4cc([C@@H](CC(=O)O)C5CC5)ccc4c3C(=O)Oc3ccccc3OC)CC2)c1` fall in the same range of EC50: 1 to 10 nM for the first, 1 to 10 nM for the second.

First: CC(C)(C)OC(=O)c1c(C2CCN(c3ccc4c(c3)OCO4)CC2)oc2cc([C@@H](CC(=O)O)C3CC3)ccc12
Second: COc1cccc(N2CCC(c3oc4cc([C@@H](CC(=O)O)C5CC5)ccc4c3C(=O)OC3(C)CC3)CC2)c1
The EC50 of the first is lower: less than 1 nM for the first, 1 to 10 nM for the second. The first is the more potent here.

`COc1cccc(N2CCC(c3oc4cc([C@@H](CC(=O)O)C5CC5)ccc4c3C(=O)Oc3ccccc3OC(F)(F)F)CC2)c1` and `COc1cccc(N2CCC(c3oc4cc([C@@H](CC(=O)O)C5CC5)ccc4c3C(=O)Oc3ccccc3C(F)(F)F)CC2)c1` fall in the same range of EC50: 1 to 10 nM for the first, 1 to 10 nM for the second.

`COc1cccc(N2CCC(c3oc4cc([C@@H](CC(=O)O)C5CC5)ccc4c3C(=O)Oc3cc(C4CCCCC4)ccc3F)CC2)c1` and `COc1cccc(N2CCC(c3oc4cc([C@@H](CC(=O)O)C5CC5)ccc4c3C(=O)OC(C)c3ccccn3)CC2)c1` (stereo partly shown) fall in the same range of EC50: 10 to 100 nM for the first, 10 to 100 nM for the second.

Compared with `COc1cccc(N2CCC(c3oc4cc([C@@H](CC(=O)O)C5CC5)ccc4c3C(=O)OCC=C(C)C)CC2)c1`, `CCCCCCCCCCCCOC(=O)c1c(C2CCN(c3cccc(OC)c3)CC2)oc2cc([C@@H](CC(=O)O)C3CC3)ccc12` is higher in EC50: 1 to 10 nM for the first, 10 to 100 nM for the second.
